Measured values from PubChem BioAssay AID720536 (National Center for Advancing Translational Sciences (NCATS), 2013).
This is a selection; strong and weak results do not stand in their true shares. Records with an inconclusive call do not appear. Activity calls are given as the source filed them. Calls come from the whole dose curve; as a rule, active = well fitted inhibition curve with a large enough effect; inconclusive = small, poorly fitted or top-dose-only effect; inactive = no such curve, though single readings can be large or run the other way.
Potency is the fitted concentration of half-maximal effect.

Assay: qHTS for Inhibitors of TGF-b: CCL64 Cells Orthogonal Assay for Cherry Picks; note: nearly all actives have a fitted effect of over 65% in size
Conditions: CCL64 CAGA-GFP reporter, TGF-b stimulated, GFP fluorescence, 18 h
Excerpt: TGF-b is a main component in the TGF-b signaling pathway which plays diverse roles in cellular and development pathways. TGF-b is the mediated by the transcription factors Smads. Although the Smad-dependent pathway is the primary canonical TGF-b signaling node, TGF-b1 can also activate alternative signaling pathways, including those involving MAPK (ERK, JNK and p38). This interaction may mediate or enhance Smad-dependent responses, or can exert Smad-independent effects. The complexity of this signaling cascade allows the TGF-b superfamily to perform unique, overlapping or redundant functions. […] We aim to identify Smad3-small molecule antagonists using a quantitative high throughput screening (qHTS) approach. […]
Suspensions of trypsinized CCL64 CAGA-GFP cells were dispensed into white, tissue culture-treated, solid 1536-well plates at 5uL/well (1000 cells/well final concentration) in DMEM medium supplemented with 1% FBS. […] The plates were measured on an Acumen eX3 Explorer plate reader for GFP fluorescence (ex488/em500-530). GFP values were calculated by determining the mean GFP fluorescence of individual cells, and compiling these values for each well to determine a total well GFP signal. The %Activity was determined from the corrected fluorescence values. […] Concentration-response curves were fitted to the signals arising from the resulting fluorescence. […]
With `O=c1c2cc([N+](=O)[O-])ccc2[nH]c2c([N+](=O)[O-])cc([N+](=O)[O-])cc12` the Potency was active: 5.17 µM.
